Assay results published in patent US11338026B2, “Identification of immunologically protective neo-epitopes for the treatment of cancers” (THE UNIVERSITY OF CONNECTICUT, priority 2014, dated 2022).

Biological target: T1, H-2 K^d (Mus musculus, UniProt P01902)
T1 sequence (P01902 22-368): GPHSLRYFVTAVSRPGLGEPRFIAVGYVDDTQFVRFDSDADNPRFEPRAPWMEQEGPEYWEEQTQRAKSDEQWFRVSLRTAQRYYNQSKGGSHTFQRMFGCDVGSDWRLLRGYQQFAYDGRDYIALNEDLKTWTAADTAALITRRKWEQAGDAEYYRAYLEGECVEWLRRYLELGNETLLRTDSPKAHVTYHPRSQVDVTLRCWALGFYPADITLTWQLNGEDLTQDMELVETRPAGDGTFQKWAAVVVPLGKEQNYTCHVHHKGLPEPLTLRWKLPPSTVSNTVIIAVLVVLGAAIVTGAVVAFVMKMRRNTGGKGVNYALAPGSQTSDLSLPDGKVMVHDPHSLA
T1 sequence (P01887 21-119 partner): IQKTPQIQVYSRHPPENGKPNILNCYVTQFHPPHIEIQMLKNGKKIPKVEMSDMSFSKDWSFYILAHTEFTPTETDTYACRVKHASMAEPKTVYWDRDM
Assay: Binding assays: inhibition of binding of a radiolabeled standard peptide to purified MHC molecules
Method: Binding assays. Binding of peptides to H-2 K^d was determined using quantitative assays based on the inhibition of binding of a radiolabeled standard peptide to purified MHC molecules essentially as described previously. […] Under the conditions utilized, where [label]<[MHC] and IC50≥[MHC], the measured IC50 values are reasonable approximations of the dissociation constant values.

Compound: CC[C@H](C)[C@H](NC(=O)[C@H](Cc1ccc(O)cc1)NC(=O)[C@@H](N)CCC(N)=O)C(=O)N[C@@H](Cc1c[nH]cn1)C(=O)N[C@@H](CO)C(=O)N[C@@H](C)C(=O)N[C@@H](CC(N)=O)C(=O)N[C@H](C(=O)N[C@@H](CC(C)C)C(=O)O)C(C)C [Mapk1.1]
- IC50: 0.2 nM
